Measured values published in PubChem BioAssay AID760 (NMMLSC, 2007).
The entries are a selection whose mix differs from that of the whole data set. The source made the active and inactive calls.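 The calls were made as follows: active = GTP binding activity at least 20 points away from 100%, either lowered or raised; inconclusive = signal likely due to the compound's own green fluorescence; inactive = the rest.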

molecular target: Ras-related protein Rab-2A (Canis lupus familiaris) (UniProt P61105); assay: Rab2 wt fluorescent GTP binding changes, either direction – biochemical, dog, bead-based flow cytometry, multiplex, primary screen (AID 760); settings: GST-Rab2 wt beads, Bodipy-GTP binding, at 10 µM;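 also: 0% = beads with excess unlabeled GTP and 100% = no-compound control corrected for plate trend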

| Compound | GTP binding activity |
| --- | --- |
| Cc1cc(C)cc(OP(C)(=O)Nc2ccc(C)cc2C)c1 (stereo not drawn) | inactive: 99% |
| CCOC(=O)c1ccc(NP(C)(=O)Oc2cc(C)cc(C)c2)cc1 (stereo not drawn) | inactive: 103% |
| CP(=O)(Nc1cccc(Br)c1)Oc1ccccc1 (stereo not drawn) | inactive: 96% |
| Cc1cc(C)cc(OP(C)(=O)Nc2ccccn2)c1 (stereo not drawn) | inactive: 102% |
| Cc1ccc(C)c(NP(C)(=O)Oc2ccccc2)c1 (stereo not drawn) | inactive: 100% |
| CC1=NCCc2c1[nH]c1ccccc21.O=[N+]([O-])c1cc([N+](=O)[O-])c(O)c([N+](=O)[O-])c1 | inactive: 90% |
| COc1ccccc1OP(C)(=O)Nc1c(C)cccc1C (stereo not drawn) | inactive: 101% |
| CN1CCCCC1COC(=O)C1(O)c2ccccc2CCc2ccccc21 (stereo not drawn) | inactive: 100% |
| CP(=O)(Nc1ccc(SC(F)(F)F)cc1)Oc1ccccc1 (stereo not drawn) | inactive: 98% |
| CCCOc1ccc(NP(C)(=O)Oc2ccc(Cl)cc2)cc1 (stereo not drawn) | inactive: 94% |
| O=[N+]([O-])c1cc([N+](=O)[O-])c(-n2nnc3ccccc32)c([N+](=O)[O-])c1 | inactive: 93% |
| Cc1nc2ccc3ccccc3c2s1.O=[N+]([O-])c1cc([N+](=O)[O-])c(O)c([N+](=O)[O-])c1 | inactive: 97% |
| Cc1cccc(C)c1OP(C)(=O)Nc1ccc(SC(F)(F)F)cc1 (stereo not drawn) | inactive: 100% |
| CP(=O)(Oc1ccccc1)OC(c1ccccc1)C(F)(F)F (stereo not drawn) | inactive: 99% |
| CP(=O)(NC(=O)Nc1ccccc1)Oc1ccccc1 (stereo not drawn) | inactive: 98% |
| Cc1cc(C)cc(OP(C)(=O)Nc2ccc(SC(F)(F)F)cc2)c1 (stereo not drawn) | inactive: 99% |
| CCOP(C)(=S)SCC(=O)NC(C)C(=O)O (stereo not drawn) | inactive: 105% |
| CCOC(=O)c1ccc(NP(C)(=O)Oc2ccc(OC)cc2)cc1 (stereo not drawn) | inactive: 102% |
| CP(=O)(Nc1ccccn1)Oc1ccc(Cl)cc1 (stereo not drawn) | inactive: 92% |
| CP(=S)(Nn1cnnc1)Oc1ccccc1 (stereo not drawn) | inactive: 104% |
| COc1ccccc1OP(C)(=O)Nc1ccccc1 (stereo not drawn) | inactive: 98% |
| CP(=O)(Nc1ccccc1Br)Oc1ccccc1 (stereo not drawn) | inactive: 102% |
| CC(C)(C)c1ccc(OP(C)(=O)Nc2ccc(SC(F)(F)F)cc2)cc1 (stereo not drawn) | inactive: 100% |

| Compound | GTP binding activity |
| --- | --- |
| Cc1cccc(C)c1OP(C)(N)=O (stereo not drawn) | inactive: 100% |
| O=[N+]([O-])c1ccc2c(c1)C=Nc1ccccc1O2 | inactive: 92% |
| CCOC(=O)c1ccc(NP(C)(=O)Oc2ccccc2)cc1 (stereo not drawn) | inactive: 100% |
| COc1ccccc1OP(C)(=O)Nc1ccc(C)cc1 (stereo not drawn) | inactive: 97% |
| Cc1ccc(NP(C)(=O)Oc2ccccc2)c(C)c1 (stereo not drawn) | inactive: 97% |
| COc1ccccc1OP(C)(=O)Nc1cc(Cl)ccc1C (stereo not drawn) | inactive: 99% |
| COc1ccc(OP(C)(=O)Nc2cccc(F)c2)cc1 (stereo not drawn) | inactive: 97% |
| Cc1cc(C)cc(OP(C)(N)=O)c1 (stereo not drawn) | inactive: 98% |
| CCN(CC)CCCOC(=O)C(O)(c1ccccc1)c1ccccc1 | inactive: 101% |
| CN(C)CCOC(=O)C(O)(c1ccccc1)C1CCCC1 (stereo not drawn) | inactive: 95% |
| COc1ccc(OP(C)(=O)Nc2ccccn2)cc1 (stereo not drawn) | inactive: 95% |
| O=[N+]([O-])c1cc([N+](=O)[O-])c(Nc2ccccn2)c([N+](=O)[O-])c1 | inactive: 99% |
| Cc1c(NP(C)(=O)Oc2ccc(C(C)C)cc2)c(=O)n(-c2ccccc2)n1C (stereo not drawn) | inactive: 101% |
| CCc1ccc(OP(C)(=O)O)cc1 | inactive: 100% |
| CP(=O)(Nc1ccccn1)Oc1ccccc1 (stereo not drawn) | inactive: 103% |
| COc1ccccc1OP(C)(=O)Nc1ccc(C)cc1C (stereo not drawn) | inactive: 99% |
| Cc1cc(C)cc(OP(C)(=O)Nc2cccc(C(F)(F)F)c2)c1 (stereo not drawn) | inactive: 96% |
| COc1ccc(OP(C)(=O)Nc2ccccc2Br)cc1 (stereo not drawn) | inactive: 97% |
| COc1ccccc1OP(C)(=O)Nc1ccc(C)c(C)c1 (stereo not drawn) | inactive: 97% |
| Cc1nc2ccc3ccccc3c2o1.O=[N+]([O-])c1cc([N+](=O)[O-])c(O)c([N+](=O)[O-])c1 | inactive: 103% |
| CP(=O)(OCCOc1ccccc1)OCCOc1ccccc1 | inactive: 95% |
| CP(=O)(Nc1ccc(Cl)cc1Cl)Oc1ccccc1 (stereo not drawn) | inactive: 97% |
| CP(=O)(OC12CC3CC(CC(C3)C1)C2)OC12CC3CC(CC(C3)C1)C2 | inactive: 100% |

| Compound | GTP binding activity |
| --- | --- |
| CCOC(=O)c1ccc(NP(C)(=O)Oc2ccc(Cl)cc2)cc1 (stereo not drawn) | inactive: 95% |
| CCN(CC)CC(O)COC(=O)C(O)(c1ccccc1)C1CCCCC1 (stereo not drawn) | inactive: 104% |
| COc1ccc(OP(C)(=O)Nc2ccc(Br)cc2)cc1 (stereo not drawn) | inactive: 98% |
| CP(=O)(Oc1ccccc1)N1CCOC1=O (stereo not drawn) | inactive: 102% |
| CCc1ccc(OP(C)(=O)Nc2cccnc2)cc1 (stereo not drawn) | inactive: 93% |
| CP(=O)(Nc1ccc(Cl)cc1)Oc1ccc(F)cc1 (stereo not drawn) | inactive: 102% |
| CC(C)(C)c1ccc(OP(C)(=O)O)cc1 | inactive: 106% |
| COc1ccccc1OP(C)(=O)Nc1ccccc1Br (stereo not drawn) | inactive: 95% |
| CN(C)C(=O)c1c([N+](=O)[O-])cc([N+](=O)[O-])cc1[N+](=O)[O-] | inactive: 102% |
| CCOP(C)(=S)SCC(=O)NC(C)(CC)C(=O)O (stereo not drawn) | inactive: 99% |
| CP(=O)(Nc1ccc2c(c1)OCCO2)Oc1ccccc1 (stereo not drawn) | inactive: 105% |
| Cc1ccccc1NP(C)(=O)Nc1ccccc1C | inactive: 96% |
| COc1ccc(OP(C)(=O)Nc2cccc(Br)c2)cc1 (stereo not drawn) | inactive: 99% |
| COc1ccc(NP(C)(=O)Oc2ccccc2OC)cc1 (stereo not drawn) | inactive: 101% |
| CN(C)CCOC(=O)C(O)(c1ccccc1)C1CCCCC1 (stereo not drawn) | inactive: 98% |
| O=[N+]([O-])c1cc([N+](=O)[O-])c(NCC2CCS(=O)(=O)C2)c([N+](=O)[O-])c1 (stereo not drawn) | inactive: 95% |
| COc1ccc(OP(C)(=O)Nc2ccc(SC(F)(F)F)cc2)cc1 (stereo not drawn) | inactive: 96% |
| CCOC(=O)c1ccc(NP(C)(=O)Oc2ccc(F)cc2)cc1 (stereo not drawn) | inactive: 97% |
| CCN(CC)CCCOC(=O)C(O)(c1ccccc1)C1CCCCC1 (stereo not drawn) | inactive: 98% |
| CP(=O)(Nc1ccccc1)Oc1ccc(F)cc1 (stereo not drawn) | inactive: 100% |
| CP(=O)(Nc1ccccc1F)Oc1ccccc1 (stereo not drawn) | inactive: 95% |
| O=C(OCCN1CCN(CCOCc2ccccc2)CC1)C(O)(c1ccccc1)c1ccccc1 | inactive: 102% |
